# Biological target: hERG potassium channel (Homo sapiens, UniProt Q12809)
# Chains of the proteins cited; added tags and fusions are not shown. Lines headed by an entry give the natural chain unless they say otherwise; changes in a name come on top.
# UniProt Q12809: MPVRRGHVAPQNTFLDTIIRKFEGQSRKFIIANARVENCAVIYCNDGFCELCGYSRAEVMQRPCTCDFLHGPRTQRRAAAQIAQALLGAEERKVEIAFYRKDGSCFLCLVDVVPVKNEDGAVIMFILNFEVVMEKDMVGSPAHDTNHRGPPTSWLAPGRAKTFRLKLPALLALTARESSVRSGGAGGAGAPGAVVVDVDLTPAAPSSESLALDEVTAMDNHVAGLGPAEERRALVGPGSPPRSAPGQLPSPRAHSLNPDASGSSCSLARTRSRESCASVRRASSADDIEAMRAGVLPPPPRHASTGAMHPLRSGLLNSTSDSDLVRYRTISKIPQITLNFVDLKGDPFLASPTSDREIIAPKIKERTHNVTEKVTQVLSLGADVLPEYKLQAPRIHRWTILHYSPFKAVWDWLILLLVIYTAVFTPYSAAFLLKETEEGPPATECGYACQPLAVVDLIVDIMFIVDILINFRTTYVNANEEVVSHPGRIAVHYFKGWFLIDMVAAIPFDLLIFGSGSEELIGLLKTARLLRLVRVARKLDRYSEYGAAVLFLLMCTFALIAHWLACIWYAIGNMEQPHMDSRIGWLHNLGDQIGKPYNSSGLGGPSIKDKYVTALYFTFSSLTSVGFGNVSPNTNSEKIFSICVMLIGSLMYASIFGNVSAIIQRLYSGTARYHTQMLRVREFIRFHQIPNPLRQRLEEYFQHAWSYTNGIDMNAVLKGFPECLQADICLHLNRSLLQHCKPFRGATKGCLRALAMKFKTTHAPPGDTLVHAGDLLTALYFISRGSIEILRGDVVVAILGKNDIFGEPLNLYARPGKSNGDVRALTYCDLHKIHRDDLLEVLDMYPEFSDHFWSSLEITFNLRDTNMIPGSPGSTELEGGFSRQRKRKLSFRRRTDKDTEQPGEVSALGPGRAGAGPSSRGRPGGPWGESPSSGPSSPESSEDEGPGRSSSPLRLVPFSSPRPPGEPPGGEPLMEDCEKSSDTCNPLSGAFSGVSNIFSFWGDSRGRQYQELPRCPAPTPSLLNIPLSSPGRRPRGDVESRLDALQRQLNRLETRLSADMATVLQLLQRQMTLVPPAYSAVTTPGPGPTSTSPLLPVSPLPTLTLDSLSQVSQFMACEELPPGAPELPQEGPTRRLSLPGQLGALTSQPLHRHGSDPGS
# Experiment: in vitro
# Details: Mean % hERG Inhibition
# Description: The in vitro effects of compounds A, B, C, D, E, and F on the hERG (human ether-à-go-go-related gene) potassium channel current (a surrogate for IKr, the rapidly activating, delayed rectifier cardiac potassium current) expressed in mammalian cells were evaluated at room temperature using the QPatch HT (Sophion Bioscience A/S, Denmark), an automatic parallel patch clamp system. The test articles were evaluated at 1 μM, 3 μM, […] and 30 μM. Each test article concentration was tested in at least three cells. The duration of exposure to each test article concentration was a minimum of 3 minutes.
smiles,measurement,value
"COc1cc(N)c(Cl)cc1C(=O)NC1CCN(CCCOc2ccc(F)cc2)CC1OC (stereo not shown) [Cisapride, reference compound]",inhibition at 0.05 µM,72.7%

# — US20180298024A1, “CORTISTATIN ANALOGS AND USES THEREOF” (President and Fellows of Harvard College, priority 2015, published 2018)
